This is one part of the list. Results filed as inconclusive are left out. Activity calls are given as the source filed them. Calls follow the shape of the dose curve; as a rule, active = well fitted inhibition curve with a large enough effect; inconclusive = small, poorly fitted or top-dose-only effect, or effect the other way, or another doubt; inactive = no such curve, though single readings can be large or run the other way.

The target in the experiment is Lysosomal alpha-glucosidase (Homo sapiens) (UniProt P10253). As to the kind of experiment: qHTS Assay for Inhibitors of Human alpha-Glucosidase as a Potential Chaperone Treatment of Pompe Disease.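 Also: plate controls were uninhibited enzyme wells for no effect and no-enzyme background for full effect.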 Conditions: purified human GAA, 4-MU-alpha-glucoside fluorescence; at 76.9 µM (top of the series) unless noted. A general note: In qHTS, concentration-response curves come from the screen itself.
As to `Nc1cccc2ccc([As](=O)(O)O)cc12`, the activity change, negative = inhibition is inactive: -7.92%.

As for `CCN(N=Nc1nonc1N)c1nonc1N`, the activity change, negative = inhibition was inactive: -2.78%.

Regarding `O=C(O)c1ccccc1[As](=O)(O)O`, the activity change, negative = inhibition was inactive: -1.45%.

With `CC(=O)Nc1ccc([As](=O)(O)O)cc1`, the activity change, negative = inhibition is inactive: 4%.

`CCOP(=O)(Nc1ccccc1)OCC`: the activity change, negative = inhibition is inactive: -1.63%.

Take `Cc1cc(SC(NC(=O)c2ccc(F)cc2)C(Cl)(Cl)Cl)ncn1` (stereo not given): the activity change, negative = inhibition was inactive: 2.52%.

For the compound `Oc1ccccc1CNc1ccccn1`, the activity change, negative = inhibition was inactive: -4.93%.

With `Cc1c2non([O-])c-2c(C)[n+](=O)[n+]1[O-]`, the activity change, negative = inhibition is inactive: -2.49%.

Consider `O=C(NC(Sc1ccncn1)C(Cl)(Cl)Cl)c1ccccc1` (stereo not given), for which the activity change, negative = inhibition was inactive: -7.78%.

As for `CC(C)CC(=O)NC(Sc1ccc(Cl)cc1)C(Cl)(Cl)Cl` (stereo not given), the activity change, negative = inhibition is inactive: -1.12%.

Regarding `Cc1ccc(N/C(=N/P(=O)(N2CCOCC2)N2CCOCC2)N2CCOCC2)cc1`, the activity change, negative = inhibition was inactive: 6.11%.

As for `NC(=O)c1cc([N+](=O)[O-])cc([N+](=O)[O-])c1N`, the activity change, negative = inhibition was inactive: -12.4%.

As for `Clc1ccc(Cl)c(NC2=NCC(CBr)S2)c1` (stereo not given), the activity change, negative = inhibition is inactive: 3.64%.

For `CN1CCCC(OC(=O)C(c2ccccc2)c2ccccc2)C1` (stereo not given), the activity change, negative = inhibition was inactive: -9.81%.

For the compound `COc1ccccc1OP(=O)(Nc1ccc(C)cn1)Oc1ccccc1OC`, the activity change, negative = inhibition was inactive: 0.0874%.

Regarding `CCN(/C(=N/P(=O)(N1CCOCC1)N1CCOCC1)N1CCOCC1)c1ccc(OC)cc1`, the activity change, negative = inhibition was inactive: 0.374%.

For the compound `Nc1ccc([As](=O)(O)c2ccc(N)cc2)cc1`, the activity change, negative = inhibition is inactive: -4.18%.

`CC1CCN(C(=O)Oc2c(Cl)cc(Cl)c3cccnc23)CC1`: the activity change, negative = inhibition is inactive: -5.55%.

For the compound `CC(C)=N/N=C(\N)N[N+](=O)[O-]`, the activity change, negative = inhibition was inactive: 10.2%.

On to `CN(C)C(=O)OCCc1n(C)cc[n+]1C`, for which the activity change, negative = inhibition was inactive: -1.4%.

For `Cc1ccc(NP(=O)(Oc2ccccc2)Oc2ccccc2)nc1`, the activity change, negative = inhibition was inactive: -6.29%.

For the compound `O=[N+]([O-])c1cc([N+](=O)[O-])c(CCNc2ccccc2)c([N+](=O)[O-])c1`, the activity change, negative = inhibition is inactive: 1.74%.

As for `CCc1nc2c(n1)c1c(non1O)c1c2no[n+]1[O-]`, the activity change, negative = inhibition was inactive: 1.01%.

As for `CC(=O)N1C2C3N(C(C)=O)C1C1N(C(C)=O)C(C(N1C(C)=O)N3C(C)=O)N2C(C)=O`, the activity change, negative = inhibition was inactive: 0.647%.

For `O=[N+]([O-])c1cccc2n[nH]nc12`, the activity change, negative = inhibition was inactive: 2.1%.

For `O=[N+]([O-])c1ncn(CCn2ncnc2[N+](=O)[O-])n1`, the activity change, negative = inhibition was inactive: 2.34%.

As to `O=C(O)CNc1ccc([As](=O)(O)O)cc1`, the activity change, negative = inhibition was inactive: -11%.

For `O=C(Nc1cc([As](=O)(O)O)ccc1O)c1ccccc1`, the activity change, negative = inhibition is inactive: -4.65%.

For `CC(=O)NC(SC(=S)N(C)C)C(Cl)(Cl)Cl` (stereo not given), the activity change, negative = inhibition was inactive: -6.61%.

For the compound `O=C(OC1CN2CCC1CC2)c1cccc(Cl)c1` (stereo not given), the activity change, negative = inhibition was inactive: 5.76%.

Take `C(Cc1nn[nH]n1)Cc1nn[nH]n1`: the activity change, negative = inhibition was inactive: 2.9%.

For `O=P(Nc1ccccn1)(c1ccc(Br)cc1)c1ccc(Br)cc1`, the activity change, negative = inhibition was inactive: -3.11%.

`O=P(Nc1nc2ccccc2s1)(c1ccccc1)c1ccccc1`: the activity change, negative = inhibition is inactive: -3.43%.

Regarding `O=P(Nc1nccs1)(c1ccccc1)c1ccccc1`, the activity change, negative = inhibition was inactive: 0.756%.

`CC(C)C(=O)NC(Sc1ccccc1)C(Cl)(Cl)Cl` (stereo not given): the activity change, negative = inhibition was inactive: 1.71%.

On to `c1nnnn1CCn1cnnn1`, for which the activity change, negative = inhibition was inactive: -2.56%.

Take `CC(=O)Nc1ccc([As](=O)(O)O)c(O)c1`: the activity change, negative = inhibition is inactive: -2.27%.

For the compound `CC(=O)Nc1ccc(Oc2c([N+](=O)[O-])cc([N+](=O)[O-])cc2[N+](=O)[O-])cc1`, the activity change, negative = inhibition is inactive: -5.34%.

With `O=P1(Nc2nc3ccc(Cl)cc3s2)COc2ccccc2O1` (stereo not given), the activity change, negative = inhibition is inactive: 0.265%.

Regarding `CCOc1ccc(C2=NCC(CBr)S2)cc1` (stereo not given), the activity change, negative = inhibition is inactive: 2.68%.

Consider `CC(C)(C)C(=O)NC(Sc1ccccc1)C(Cl)(Cl)Cl` (stereo not given), for which the activity change, negative = inhibition is inactive: 3.17%.

Turning to `CCC(=O)N1C2C3N(C(=O)CC)C1C1N(C(=O)CC)C(C(N1C(=O)CC)N3C(=O)CC)N2C(=O)CC`, the activity change, negative = inhibition was inactive: 8.56%.

For `COC(=O)c1cc2c(s1)N=C(c1ccccc1)N(C)P2(=O)N1CCOCC1` (stereo not given), the activity change, negative = inhibition was inactive: 3.21%.

As to `CC(=O)NC(SC(=S)N(CC(C)C)CC(C)C)C(Cl)(Cl)Cl` (stereo not given), the activity change, negative = inhibition was inactive: 3.72%.

Regarding `O=c1c2cc([N+](=O)[O-])ccc2[nH]c2c([N+](=O)[O-])cc([N+](=O)[O-])cc12`, the activity change, negative = inhibition is inactive: 10.6%.

Turning to `c1ccc(-c2nn[nH]n2)c(-c2nn[nH]n2)c1`, the activity change, negative = inhibition was inactive: -7.71%.

With `CCOC(=O)NC(Sc1ccccc1)C(Cl)(Cl)Cl` (stereo not given), the activity change, negative = inhibition was inactive: -13.3%.

Turning to `O=C(NC1CCS(=O)(=O)C1)NP(=S)(Oc1ccccc1)Oc1ccccc1` (stereo not given), the activity change, negative = inhibition is inactive: 0.644%.

For the compound `CCNC(=S)/N=C(\N)N[N+](=O)[O-]`, the activity change, negative = inhibition was inactive: 0.417%.

As for `O=[N+]([O-])c1ccc2c(c1)nnn2O`, the activity change, negative = inhibition was inactive: -5.6%.

`CCOP1(=S)c2c(C)nn(CCC#N)c2N=C(c2ccccc2F)N1C` (stereo not given): the activity change, negative = inhibition was inactive: 0.945%.

`O=P(Nc1nccs1)(c1ccccc1)c1nc2ccccc2s1` (stereo not given): the activity change, negative = inhibition is inactive: -1.6%.

With `O=P(Nc1nccs1)(Oc1ccccc1)Oc1ccccc1`, the activity change, negative = inhibition was inactive: 8.51%.

As to `CS(=O)(=O)c1cc([N+](=O)[O-])c2no[n+]([O-])c2c1`, the activity change, negative = inhibition is inactive: -5.24% [at 15.4 µM].

On to `Nc1cccc2c([As](=O)(O)O)cccc12`, for which the activity change, negative = inhibition was inactive: -13.2%.

Turning to `Cc1ccc(NCCc2c([N+](=O)[O-])cc([N+](=O)[O-])cc2[N+](=O)[O-])cc1`, the activity change, negative = inhibition was inactive: -1.84%.

In the case of `COc1cc(C2NCCC3(OCCO3)C2(C)C)cc(OC)c1OC` (stereo not given), the activity change, negative = inhibition is inactive: 0.273%.

For `CCOP(=O)(Nc1cccc2ccccc12)OCC`, the activity change, negative = inhibition is inactive: -5.69%.

Regarding `COc1cc(C(=O)NCC2(N3CCOCC3)CCCCC2)cc(Cl)c1OC(C)C`, the activity change, negative = inhibition was inactive: -5.61%.

On to `O=[As](O)(c1cccc(O)c1)c1cccc(O)c1`, for which the activity change, negative = inhibition was inactive: -3.91% [at 15.4 µM].

Take `Cc1cccc(OCC(=O)OC2CN3CCC2CC3)c1` (stereo not given): the activity change, negative = inhibition is inactive: 2.74%.

Take `CN(C(=O)Cc1ccc(Cl)c(Cl)c1)[C@@H]1CCCC[C@H]1N1CCCC1`: the activity change, negative = inhibition was inactive: -13.6% [at 15.4 µM].

For `CC(C)/C=N\N=C(\N)N[N+](=O)[O-]`, the activity change, negative = inhibition is inactive: 1.93%.

Consider `O=P1(Nc2ccccn2)COc2ccccc2OC1`, for which the activity change, negative = inhibition was inactive: 5.97%.

Consider `Clc1n[nH]nc1-c1nn[nH][15n]1`, for which the activity change, negative = inhibition is inactive: -4.49%.

These data come from PubChem BioAssay AID1466 (National Center for Advancing Translational Sciences (NCATS), 2008).
